For data set [1] the following is noted: for factor: equilibrium solubility relative to pristine NCL, 37°C, 24 h, 40% isopropanol-water.
For data set [2] the following is noted: result in words.

In the case of Niclosamide - benzamide [NCL-BA], in data set [1], the factor amounted to 1.3. Further, the “increase of the equilibrium solubility” value in data set [1] (result in words, versus pristine NCL) is listed as “moderate increase”.
Substance Niclosamide - 2-aminothiazole [NCL-AT] gave a factor in data set [1] of 2.8. Besides, in data set [1] (fold versus NCL-URE co-crystal), the “equilibrium solubility relative to NCL-URE co-crystal” value came out at 1.4 x. In addition, the “stability of the co-crystal concerning its hygroscopic behavior” value in data set [2] was “improved”. Also, the “stability of the co-crystal” value in data set [2] (storage) is reported as “stable for many months”.

The values are drawn from patent publication EP3168211A1, “PHARMACEUTICAL CO-CRYSTALS OF NICLOSAMIDE” (Westfälische Wilhelms-Universität Münster, priority 2015, dated 2017).
